Measurements reported in patent publication US20230374127A1 (LG CHEM, published 2023).

Chains of the proteins cited; added tags and fusions are not shown. Residues count along the entry.
UniProt Q8NHL6, 24-458 limits assumed: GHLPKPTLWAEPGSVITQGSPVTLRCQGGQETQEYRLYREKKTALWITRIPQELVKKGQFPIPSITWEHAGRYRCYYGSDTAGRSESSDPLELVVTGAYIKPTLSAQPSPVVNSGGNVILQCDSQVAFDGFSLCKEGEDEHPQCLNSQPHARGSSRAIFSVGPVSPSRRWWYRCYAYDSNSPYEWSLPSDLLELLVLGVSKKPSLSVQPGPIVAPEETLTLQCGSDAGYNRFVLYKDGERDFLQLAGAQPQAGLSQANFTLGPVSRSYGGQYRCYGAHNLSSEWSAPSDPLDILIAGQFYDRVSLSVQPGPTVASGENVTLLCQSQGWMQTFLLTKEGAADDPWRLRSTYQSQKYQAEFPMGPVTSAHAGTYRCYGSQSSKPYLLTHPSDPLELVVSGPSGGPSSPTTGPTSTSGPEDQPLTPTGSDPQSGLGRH

B1: anti-LILRB1 antibody No. 13 (antibody, human IgG4 S228P, kappa, F234A L235A, V domains shown)
VH: QVQLVQSGAEVKKPGSSVKVSCKASGGTFSGYYIHWVRQAPGQGLEWMGWISPSSGGTIYAQKFQGRVTITADESTSTAYMELSSLRSEDTAVYYCARDISVRVVQAFDYWGQGTLVTVSS
VL: DIQMTQSPSSLSASVGDRVTITCRASQSISNYLNWYQQKPGKAPKLLIYAASRLQSGVPSRFSGSGSGTDFTLTISSLQPEDFATYYCQQSYSFPFTFGQGTKVEIKR
B2: anti-LILRB1 antibody No. 16 (antibody, human IgG4 S228P, kappa, F234A L235A, V domains shown)
VH: QVQLVQSGAEVKKPGSSVKVSCKASGGTFSSYYMTWVRQAPGQGLEWMGGISPILGVTNYAQKFQGRVTITADESTSTAYMELSSLRSEDTAVYYCARLLVGVSETYFDYWGQGTLVTVSS
VL: DIQMTQSPSSLSASVGDRVTITCRASQDISSWLNWYQQKPGKAPKLLIYAASSLQSGVPSRFSGSGSGTDFTLTISSLQPEDFATYYCQQSYSFPWTFGQGTKVEIKR
B3: anti-LILRB1 antibody No. 14 (antibody, human IgG4 S228P, kappa, F234A L235A, V domains shown)
VH: QVQLVQSGAEVKKPGSSVKVSCKASGGTFSSYYMHWVRQAPGQGLEWMGWISPYLGITNYAQKFQGRVTITADESTSTAYMELSSLRSEDTAVYYCARAGYQQAQYWFDYWGQGTLVTVSS
VL: DIQMTQSPSSLSASVGDRVTITCRASQSISNYLNWYQQKPGKAPKLLIYATSNLQSGVPSRFSGSGSGTDFTLTISSLQPEDFATYYCQQSYSFPWTFGQGTKVEIKR
B4: anti-LILRB1 antibody No. 22 (antibody, human IgG4 S228P, kappa, F234A L235A, V domains shown)
VH: QVQLVQSGAEVKKPGSSVKVSCKASGGTFSSYAMHWVRQAPGQGLEWMGGISSSGGTTYYADSVKGRVTITADESTSTAYMELSSLRSEDTAVYYCARALGVVGGTWFDYWGQGTLVTVSS
VL: DIQMTQSPSSLSASVGDRVTITCRASQSIGSYLNWYQQKPGKAPKLLIYDASTLQSGVPSRFSGSGSGTDFTLTISSLQPEDFATYYCQQSYSFPWTFGQGTKVEIKR
B5: anti-LILRB1 antibody No. 18 (antibody, human IgG4 S228P, kappa, F234A L235A, V domains shown)
VH: QVQLVQSGAEVKKPGSSVKVSCKASGGTFSSYDINWVRQAPGQGLEWMGWIIPTSGSTNYAQKFQGRVTITADESTSTAYMELSSLRSEDTAVYYCARDSQSSYIGYFDVWGQGTLVTVSS
VL: DIQMTQSPSSLSASVGDRVTITCRASQSISRWLNWYQQKPGKAPKLLIYAASRLQSGVPSRFSGSGSGTDFTLTISSLQPEDFATYYCQQSESFPWTFGQGTKVEIKR
B6: anti-LILRB1 antibody No. 11 (antibody, human IgG4 S228P, kappa, F234A L235A, V domains shown)
VH: QVQLVQSGAEVKKPGSSVKVSCKASGGTFSSYYVHWVRQAPGQGLEWMGWISPYSGGTNYAQKFQGRVTITADESTSTAYMELSSLRSEDTAVYYCARDYYVSAYGAFDYWGQGTLVTVSS
VL: DIQMTQSPSSLSASVGDRVTITCRASQSISNYLNWYQQKPGKAPKLLIYDASTLQSGVPSRFSGSGSGTDFTLTISSLQPEDFATYYCQQSYSFPWTFGQGTKVEIKR
B7: anti-LILRB1 antibody No. 8 (antibody, V domains shown)
VH: QVQLVQSGAEVKKPGSSVKVSCKASGGTFSSYGIHWVRQAPGQGLEWMGWIIPISGTTNYAQKFQGRVTITADESTSTAYMELSSLRSEDTAVYYCARVGGVGLYVFDVWGQGTLVTVSS
VL: not shown

The binders below were run against T1, human LILRB1 protein (LILRB1-His, RnD systems Cat. No. 8989-T2) (human, UniProt Q8NHL6 24-458, limits assumed) (assay: SPR, Biacore T200; antibody captured by anti-human IgG (Fc), LILRB1-His injected 25-400 nM).
T1 construct: Bought protein; also called LILRB1 antigen; the antigen, LILRB1; not shown: His tag
Description: The binding affinities of the 19 antibodies, which were selected in Example 3, to the antigen, LILRB1, were measured using Biacore T200 (GE healthcare). An anti-human IgG (Fc) antibody (GE healthcare, Cat. No. BR-1008-39, final concentration of 25 μg/mL) was flowed at the flow rate of 5 μL/min for 360 seconds to be immobilized at 5000-7000 RU on Series S Sensor Chip CM5 (GE healthcare, Cat. No. BR-1005-30) using Amine Coupling Kit (GE healthcare, Cat. No. BR-1000-50).

Compared with B1, B2 is 2.7-fold higher in Kd: 30.3 nM for the first, 83.3 nM for the second. The first binds more tightly here.

B3 and B4 are within 1.5-fold of each other in Kd: 409 nM for the first, 499 nM for the second.

Compared with B5, B6 is 2.8-fold higher in Kd: 4.32 nM for the first, 12.2 nM for the second. The first binds more tightly here.

With B7 the Kd was 75.2 nM.

First: B2
Second: B3
The koff of the first is 6.9-fold lower: 0.00963 s⁻¹ for the first, 0.0663 s⁻¹ for the second.

Going from B4 to B5, the koff falls from 0.0341 s⁻¹ to 0.000622 s⁻¹ (55-fold).

Going from B6 to B7, the koff rises from 0.000106 s⁻¹ to 0.00464 s⁻¹ (44-fold).

B2 and B3 are within 1.5-fold of each other in kon: 116000 M⁻¹ s⁻¹ for the first, 162000 M⁻¹ s⁻¹ for the second.

Compared with B4, B5 is 2.1-fold higher in kon: 68300 M⁻¹ s⁻¹ for the first, 144000 M⁻¹ s⁻¹ for the second.

Going from B6 to B7, the kon rises from 8660 M⁻¹ s⁻¹ to 61700 M⁻¹ s⁻¹ (7.1-fold).
